From patent US9499534B2, “Thiazole-substituted aminopyrimidines as spleen tyrosine kinase inhibitors” (priority 2013, dated 2016)

Target: recombinant human GST-SYK (Homo sapiens (Human), UniProt P43405)
Test: Homogeneous Time-Resolved Fluorescence (HTRF) Assay for the Recombinant Human Syk Enzyme
Type: biochemical
Settings: GST-SYK 5 pM, ATP 25 μM, biotinylated substrate peptide 250 nM, HTRF signal
Description: Homogeneous Time-Resolved Fluorescence (HTRF) Assay for the Recombinant Human Syk Enzyme
A recombinant GST-hSYK fusion protein was used to measure potency of compounds to inhibit human Syk activity. The recombinant human GST-SYK (Carna Biosciences #08-176) (5 pM final concentration) was incubated with various concentrations of the inhibitor diluted in DMSO (0.1% final concentration) for 10 minutes at room temperature in 15 mM Tris-HCl (pH 7.5), 0.01% tween 20, 2 mM DTT in 384 well plate format. To initiate the reaction the biotinylated substrate peptide (250 nM final concentration) that contains the phosphorylation site for Syk was added with magnesium (5 mM final concentration) and ATP (25 μM final concentration). Final volume of the reaction was 10 μL. Phosphorylation of the peptide was allowed to proceed for 45′ at room temperature. To quench the reaction and detect the phosphorylated product, 2 nM of a Europium-anti-phosphotyrosine antibody (Perkin Elmer #AD0161) and 70 nM SA-APC (Perkin-Elmer #CR130-100) were added together in 15 mM Tris pH 7.5, 40 mM EDTA, 0.01% tween 20. Final volume of the quenching solution was 10 μL.
The resulting HTRF signal was measured after 30 minutes on an EnVision (Perkin-Elmer) reader using a time-resolved fluorescence protocol. Table A below lists activities as IC50 values (nM) for representative compounds of the invention.

(1R,4S or 1S,4R)-4-hydroxy-4-{5-[4′-(methoxymethyl)-5-{[4-fluoromethyl)pyrimidin-2-yl]amino}biphenyl-3-yl]-1,3-thiazol-2-yl}-2,2-dimethylcyclohexanecarboxylic acid [Example 2.13]
IC50: 0.0102 µM
